Molecular target: 5-HT2A receptors (Rattus norvegicus, UniProt P14842)
Test: 5-HT2A receptor binding test ([3H]ketanserin displacement)
Settings: read-out: IC50 values (concentrations in mol/l at which 50% of the radioactive ligands are displaced from the binding sites), frontal rat cortex homogenate, 15 minutes at 37° C., tested form: HCl

By UniProt entry, the sequences of proteins in these tests, tags left out.
UniProt P14842, whole entry: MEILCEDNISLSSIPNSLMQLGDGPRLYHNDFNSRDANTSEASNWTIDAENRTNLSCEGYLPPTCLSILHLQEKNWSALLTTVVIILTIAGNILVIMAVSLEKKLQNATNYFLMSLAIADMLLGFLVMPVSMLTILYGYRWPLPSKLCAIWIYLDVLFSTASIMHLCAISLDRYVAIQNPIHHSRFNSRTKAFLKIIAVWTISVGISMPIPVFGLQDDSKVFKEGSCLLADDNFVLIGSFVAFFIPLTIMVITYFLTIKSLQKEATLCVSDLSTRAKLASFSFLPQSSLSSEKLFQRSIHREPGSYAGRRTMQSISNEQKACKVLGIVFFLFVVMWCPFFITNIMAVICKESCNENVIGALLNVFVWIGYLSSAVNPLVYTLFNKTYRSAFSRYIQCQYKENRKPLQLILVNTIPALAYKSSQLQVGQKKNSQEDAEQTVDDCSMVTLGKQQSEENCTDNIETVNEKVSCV

IC50 | Compound
4.1 nM | Cc1sc(Cl)cc1CCN1CCC(C(C)(O)c2ccc(F)cc2)CC1 (centres unmarked)
32 nM | CCC(O)(c1ccc(F)cc1)C1CCN(CCc2ccc(Cl)s2)CC1 (centres unmarked)
